These are literature values, as cited in patent US20120093882A1, “STABLE PHARMACEUTICAL COMPOSITIONS OF DICLOFENAC” (priority 2009, published 2012).

The conditions of this data set: maximum, after 53 h of exposure to sunlight.

Regarding `O=C(O)Cc1ccccc1Nc1c(Cl)cccc1Cl` [Diclofenac], the phytotoxicity enhancement result is “six fold enhanced toxicity”.
